{"sequences": {"note": "Sequences of proteins named here, by UniProt entry; tags and fusion partners are left off.", "UniProt P31652, whole entry": "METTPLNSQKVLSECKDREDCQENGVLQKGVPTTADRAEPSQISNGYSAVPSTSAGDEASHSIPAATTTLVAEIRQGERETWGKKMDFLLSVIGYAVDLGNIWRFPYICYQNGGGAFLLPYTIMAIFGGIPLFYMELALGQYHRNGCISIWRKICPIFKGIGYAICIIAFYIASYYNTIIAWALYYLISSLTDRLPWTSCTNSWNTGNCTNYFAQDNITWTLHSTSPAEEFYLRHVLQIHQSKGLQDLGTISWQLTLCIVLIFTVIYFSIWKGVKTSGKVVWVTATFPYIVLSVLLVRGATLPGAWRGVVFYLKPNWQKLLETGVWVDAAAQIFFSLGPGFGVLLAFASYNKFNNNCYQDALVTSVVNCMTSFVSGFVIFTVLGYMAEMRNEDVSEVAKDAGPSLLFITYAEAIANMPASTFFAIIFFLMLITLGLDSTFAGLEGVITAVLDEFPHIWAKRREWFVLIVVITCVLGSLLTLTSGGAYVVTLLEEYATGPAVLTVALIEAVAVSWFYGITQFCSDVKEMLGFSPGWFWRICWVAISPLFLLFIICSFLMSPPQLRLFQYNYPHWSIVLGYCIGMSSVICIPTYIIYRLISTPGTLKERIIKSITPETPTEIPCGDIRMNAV"}, "source": "paper PMC12720098", "about": "“Prolintane analogs as hybrid monoamine transporter ligands: Structural determinants and species differences” (The Journal of Biological Chemistry, 2025)", "target": "rSERT (Rattus norvegicus, UniProt P31652)", "assay_type": "cell-based", "parameters": "expressed in transfected cells", "details": "for Mean diff, rSERT efflux ± Mon (Šídák's multiple comparisons test): drug alone vs drug + monensin (Mon)", "note": "Where a name gives a salt, the structure may show the parent alone. Read-outs that look alike come from different tables or passages of the source."}
{"smiles": "Fc1ccc([C@@H]2CCNC[C@H]2COc2ccc3c(c2)OCO3)cc1", "note": "[Paroxetine, paroxetine HCl]", "values": [{"measurement": "Mean diff, rSERT efflux ± Mon (Šídák's multiple comparisons test)", "setting": "Row 1 (time fraction)", "result": 0.1442}, {"measurement": "Mean diff, rSERT efflux ± Mon (Šídák's multiple comparisons test)", "setting": "Row 2 (time fraction)", "result": -0.02622}, {"measurement": "Mean diff, rSERT efflux ± Mon (Šídák's multiple comparisons test)", "setting": "Row 3 (time fraction)", "result": -0.1814}, {"measurement": "Mean diff, rSERT efflux ± Mon (Šídák's multiple comparisons test)", "setting": "Row 4 (time fraction)", "result": -0.04233}, {"measurement": "Mean diff, rSERT efflux ± Mon (Šídák's multiple comparisons test)", "setting": "Row 5 (time fraction)", "result": -0.6121}, {"measurement": "Mean diff, rSERT efflux ± Mon (Šídák's multiple comparisons test)", "setting": "Row 6 (time fraction)", "result": -1.044}, {"measurement": "Mean diff, rSERT efflux ± Mon (Šídák's multiple comparisons test)", "setting": "Row 7 (time fraction)", "result": -1.227}, {"measurement": "Mean diff, rSERT efflux ± Mon (Šídák's multiple comparisons test)", "setting": "Row 8 (time fraction)", "result": -1.361}, {"measurement": "Mean diff, rSERT efflux ± Mon (Šídák's multiple comparisons test)", "setting": "Row 9 (time fraction)", "result": -2.004}, {"measurement": "Mean diff, rSERT efflux ± Mon (Šídák's multiple comparisons test)", "setting": "Row 10 (time fraction)", "result": -1.579}, {"measurement": "Mean diff, rSERT efflux ± Mon (Šídák's multiple comparisons test)", "setting": "Row 11 (time fraction)", "result": -1.619}, {"measurement": "Mean diff, rSERT efflux ± Mon (Šídák's multiple comparisons test)", "setting": "Row 12 (time fraction)", "result": -1.624}, {"measurement": "[3H]5-HT releasing profile in cells expressing rSERT", "setting": "superfusion, HEK293 cells, with and without monensin", "result": "almost identical pseudo-efflux releasing profile"}]}
